Assay results from patent US8354403B2, “Pyrrolidine derived beta 3 adrenergic receptor agonists” (Merck Sharp & Dohme Corp., priority 2009, dated 2013).

Amino acid sequences for entries named in this document (tags omitted).
UniProt P13945, whole entry: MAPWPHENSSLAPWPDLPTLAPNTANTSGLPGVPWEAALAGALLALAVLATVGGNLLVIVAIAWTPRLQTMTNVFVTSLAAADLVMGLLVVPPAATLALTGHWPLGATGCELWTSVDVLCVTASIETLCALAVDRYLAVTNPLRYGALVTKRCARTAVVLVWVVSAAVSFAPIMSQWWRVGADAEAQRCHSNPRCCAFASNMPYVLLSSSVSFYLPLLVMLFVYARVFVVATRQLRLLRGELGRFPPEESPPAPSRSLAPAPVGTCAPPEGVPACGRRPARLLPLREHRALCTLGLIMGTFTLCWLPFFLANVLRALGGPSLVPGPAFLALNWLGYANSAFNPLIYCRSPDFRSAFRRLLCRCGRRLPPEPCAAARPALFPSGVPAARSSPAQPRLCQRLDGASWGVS

Biological target: human β3 adrenergic receptor (Homo sapiens, UniProt P13945)
Test: Beta-3 agonist in vitro functional assay: cAMP production (LANCE TR-FRET) in CHO cells stably transfected with the cloned β3 receptor
Type: cell-based
Details: read-out: Human β3 agonist functional activity; Table 12; human β3 functional activity given as ranges

Row | EC50 [nM] | Structure (SMILES)
1 | 1 to 9.9 | CC(c1ccn[nH]1)N1CCN(C(=O)c2ccc(C[C@@H]3CC[C@H]([C@H](O)c4ccccc4)N3)cc2)CC1 (single isomer, unassigned)
2 | 10 to 99.9 | O=C(c1ccc(C[C@@H]2CC[C@H]([C@H](O)c3ccccc3)N2)cc1)N1CCN(C2CCCc3cccnc32)CC1 (single isomer, unassigned)
